Drawing on PubChem BioAssay (NCI), this text covers growth inhibition for eight molecules.

This is a selection; strong and weak results do not stand in their true shares. The source holds several records for some structures; these can differ, active in one and inactive in another. Calls of active or inactive are those of the source. Cut-off read from the data, not from the text of the source: active = growth inhibition above about 70%; inactive = the rest.

The nature of the assay: NCI Yeast Anticancer Drug Screen. Data for the mlh1 strain (AID 171).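 Note: 0% = growth of vehicle-treated control cultures of the same strain.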 The following applies: S. cerevisiae mlh1 strain growth inhibition, active compounds read high. Here is the method: Growth inhibition of yeast strains with defined genetic alterations is measured as a screen for potential anti-cancer activity. Selected strains with alterations in DNA damage repair or cell cycle control were exposed to compounds and growth inhibition was measured relative to vehicle treated controls. The strain used in this assay is mlh1

Regarding `O=C1OC(C(Cl)(Cl)Cl)Sc2ccccc21` (stereo not given), the growth inhibition is, setting by setting: (at 1.2 µM) inactive: 0%; (at 3.7 µM) inactive: 1%; (at 11.0 µM) inactive: 10%; (at 33.0 µM) inactive: 42%; (at 100.0 µM) active: 75%.

Take `FC1(F)SC2C(C1(F)F)C1(Cl)C(Cl)=C(Cl)C2(Cl)C1(Cl)Cl` (stereo not given): the growth inhibition is inactive: 26% (at 1.2 µM); active: 98% (at 3.7 µM); active: 99% (at 11.0 µM); active: 99% (at 33.0 µM); active: 99% (at 100.0 µM).

On to `CN(C)P(=O)(N(C)C)n1c(Nc2ccccc2)nnc1-c1ccccc1`, for which the growth inhibition runs as follows: (at 1.2 µM) inactive: -24%; (at 3.7 µM) inactive: -2%; (at 11.0 µM) inactive: -12%; (at 33.0 µM) active: 94%; (at 100.0 µM) inactive: 33%.

Take `O=[N+]([O-])c1cc([N+](=O)[O-])c2nsnc2c1`: the growth inhibition is inactive: -6% (at 1.2 µM); inactive: 22% (at 3.7 µM); active: 99% (at 11.0 µM); active: 99% (at 33.0 µM); active: 99% (at 100.0 µM).

As for `N#Cc1cc([N+](=O)[O-])cc([N+](=O)[O-])c1N`, the growth inhibition reads like this: (at 1.2 µM) inactive: 3%; (at 3.7 µM) inactive: 1%; (at 11.0 µM) inactive: 18%; (at 33.0 µM) inactive: 48%; (at 100.0 µM) active: 80%.

For the molecule `CC(C)c1nc(Nc2ccccc2)n(P(=O)(N(C)C)N(C)C)n1`, the growth inhibition is inactive: -42% (at 1.2 µM); inactive: -29% (at 3.7 µM); inactive: -23% (at 11.0 µM); inactive: 33% (at 33.0 µM); active: 91% (at 100.0 µM).

As for `NC(Cc1cnc[nH]1)C(=O)O` (stereo not given), the growth inhibition was inactive: -11% (at 1.2 µM); inactive: 27% (at 3.7 µM); active: 96% (at 11.0 µM); active: 97% (at 33.0 µM); active: 99% (at 100.0 µM).

As for `COc1cccc(C[N+](C)(CCCl)CCCl)c1[N+](=O)[O-]`, the growth inhibition runs as follows: (at 1.2 µM) inactive: 32%; (at 3.7 µM) inactive: 22%; (at 11.0 µM) inactive: 20%; (at 33.0 µM) inactive: 26%; (at 100.0 µM) inactive: 41%.
